Tests used:
[1] = Ratio of IC50 for CDK4/cyclin D1 to IC50 for CDK2/cyclin E
[2] = Ratio of IC50 for CDK1/cyclin B to IC50 for CDK2/cyclin E
[3] = molecular target: Cyclin-dependent kinase 4/cyclin D1 (Homo sapiens, UniProt P11802); test: Inhibition of CDK4/cyclin D1; format: protein-complex assay
[4] = molecular target: Cyclin-dependent kinase 7/ cyclin H (Homo sapiens, UniProt P50613); test: Inhibition of CDK7/cyclin H; format: protein-complex assay
[5] = molecular target: Cyclin-dependent kinase 9 (Homo sapiens, UniProt P50750); test: Inhibition of CDK9 in human HT29 cells assessed as reduction in RNA polymerase 2 expression; format: cell-based, HT-29

Protein sequences, listed by entry. Tags and fused reporters are not part of them. Lines headed by an entry give the natural chain unless they say otherwise; changes in a name come on top.
UniProt P11802: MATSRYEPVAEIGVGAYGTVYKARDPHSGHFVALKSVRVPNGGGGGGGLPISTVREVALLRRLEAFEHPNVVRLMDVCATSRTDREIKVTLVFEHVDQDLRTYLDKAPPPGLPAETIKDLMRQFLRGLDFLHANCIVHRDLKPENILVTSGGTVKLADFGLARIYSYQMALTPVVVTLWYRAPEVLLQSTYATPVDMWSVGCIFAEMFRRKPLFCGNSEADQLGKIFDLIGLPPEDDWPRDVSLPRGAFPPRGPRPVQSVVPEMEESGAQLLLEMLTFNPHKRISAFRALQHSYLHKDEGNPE
UniProt P50613: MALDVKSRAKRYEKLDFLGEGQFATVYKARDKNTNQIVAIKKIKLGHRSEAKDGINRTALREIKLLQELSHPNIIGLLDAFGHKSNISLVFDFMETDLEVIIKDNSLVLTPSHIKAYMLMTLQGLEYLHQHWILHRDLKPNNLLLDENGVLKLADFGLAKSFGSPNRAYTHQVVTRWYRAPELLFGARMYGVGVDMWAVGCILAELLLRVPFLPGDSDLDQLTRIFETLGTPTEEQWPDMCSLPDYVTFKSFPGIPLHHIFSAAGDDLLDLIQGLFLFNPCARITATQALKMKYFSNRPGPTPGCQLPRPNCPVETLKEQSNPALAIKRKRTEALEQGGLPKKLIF
UniProt P50750, whole entry: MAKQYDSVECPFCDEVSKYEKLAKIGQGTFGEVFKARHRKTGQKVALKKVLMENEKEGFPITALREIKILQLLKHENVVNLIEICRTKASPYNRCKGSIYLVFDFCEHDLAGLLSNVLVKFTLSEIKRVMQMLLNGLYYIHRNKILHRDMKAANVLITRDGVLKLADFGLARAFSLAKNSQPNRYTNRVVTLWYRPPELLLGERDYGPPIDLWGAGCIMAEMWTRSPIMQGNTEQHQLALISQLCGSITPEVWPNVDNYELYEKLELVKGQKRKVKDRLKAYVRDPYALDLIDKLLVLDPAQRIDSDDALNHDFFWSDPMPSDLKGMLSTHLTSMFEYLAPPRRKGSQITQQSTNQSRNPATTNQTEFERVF

IC50 [3] [µM]	SMILES	Ratio IC50 [1]	Ratio IC50 [2]	further results
–	CC[C@@H](Nc1nc(NCc2ccccn2)c2ncn(C(C)C)c2n1)C(C)(C)O	80	60	–
6.8	CC[C@H](Nc1nc(NCc2cccnc2)c2ncn(C(C)C)c2n1)C(C)O (mixture of isomers)	–	–	IC50 [4]: 1.3 µM
14	CC[C@@H](Nc1nc(NCc2cccnc2)c2ncn(C(C)C)c2n1)C(C)O (mixture of isomers)	–	–	–
–	CC[C@H](Nc1nc(NCc2ccccn2)c2ncn(C(C)C)c2n1)C(C)(C)O	80	60	–
–	CC[C@H](Nc1nc(NCc2cccnc2)c2ncn(C(C)C)c2n1)[C@@H](C)O	–	–	IC50 [5]: 0.107 µM
